Details of the data set: species or system E. coli. How it is done: To examine the activity of purified FDC1 in vitro, we constructed an expression vector and expressed FDC1 in E. coli under various conditions. Plasmid pDEST17-FDC1 was transformed into E. Coli strain BL21(DE3) competent cells. Terrific-broth media supplemented with ampicillin (100 μg/mL) was inoculated with a 1000-time dilution of an overnight culture. The bacteria were cultured at 37° C. until OD600 reached 0.8 to 1.0, at which point isopropyl f3-D-1-thiogalactopyranoside (IPTG) was added to a final concentration of 0.2 mM, and continued to be cultured for 3 hours at the same temperature. We used three different lysis buffers to check the expression of FDC1. Buffer A contained 25 mM potassium phosphate buffer pH 7.5, 500 mM sodium chloride, 10 mM imidazole, 20 mM PME, 0.5 mM PMSF, 10 mM MgCl2, 2 μg/mL DNAse, 2 μg/mL RNAse, and 4 μg/mL lysozyme. Buffer B contained 50 mM potassium phosphate pH buffer 7.0, 1 mM DTT, 50 mM sodium thiosulfate, 20% glycerol, 500 mM NaCl, 10 mM MgCl2, 20 mM imidazole, 2 μg/mL DNAse, 2 μg/mL RNAse, and 4 μg/mL lysozyme. Buffer C was composed of Buffer A containing 50 mM sodium thiosulfate and 20% glycerol.
To produce functional FDC1 in E. coli, expression of FDC1 was induced at various temperatures (37° C., 30° C., 25° C., 18° C., and 16° C.) in the presence of various concentrations of IPTG (0.2 mM, 0.5 mM). […]

B1: yeast FDC (ferulic acid decarboxylase, FDC1, Saccharomyces cerevisiae) in bait vector pGBKT7-Gateway (enzyme)
chain: MRKLNPALEFRDFIQVLKDEDDLIEITEEIDPNLEVGAIMRKAYESHLPAPLFKNLKGASKDLFSILGCPAGLRSKEKGDHGRIAHHLGLDPKTTIKEIIDYLLECKEKEPLPPITVPVSSAPCKTHILSEEKIHLQSLPTPYLHVSDGGKYLQTYGMWILQTPDKKWTNWSIARGMVVDDKHITGLVIKPQHIRQIADSWAAIGKANEIPFALCFGVPPAAILVSSMPIPEGVSESDYVGAILGESVPVVKCETNDLMVPATSEMVFEGTLSLTDTHLEGPFGEMHGYVFKSQGHPCPLYTVKAMSYRDNAILPVSNPGLCTDETHTLIGSLVATEAKELAIESGLPILDAFMPYEAQALWLILKVDLKGLQALKTTPEEFCKKVGDIYFRTKVGFIVHEIILVADDIDIFNFKEVIWAYVTRHTPVADQMAFDDVTSFPLAPFVSQSSRSKTMKGGKCVTNCIFRQQYERSFDYITCNFEKGYPKGLVDKVNENWKRYGYK
notes: Yeast two-hybrid bait fusion expressed in Clontech Y2HGold cells; also called FDC (Bait vector); not shown: fusion partner encoded by yeast two-hybrid bait vector pGBKT7-Gateway
For the molecule B1, the “effect of induction temperature on expression and solubility” value was “lower temperature improved expression and solubility”.

The record behind these values is patent publication US20130005012A1, “ENZYMATIC SYSTEM FOR MONOMER SYNTHESIS” (PHYTOGENE, INC., priority 2011, published 2013).
